pIC50: −log10 of the molar value. Like-named read-outs stand apart in the source and are kept apart here.
Key:
Jak2 (a.a. 828-1132) = Jak2 (a.a. 828-1132) (Homo sapiens, UniProt O60674); assay: In vitro JAK kinase assay (HTRF, phosphorylation of a biotinylated peptide), JAK2, reported as JAK2/JAK1 ratio; conditions: Assay Conditions 1 mM ATP
Description: (§1) Compounds herein were tested for inhibitory activity of JAK targets according to the following in vitro assay described in Park et al., Analytical Biochemistry 1999, 269, 94-104. The catalytic domains of human JAK1 (a.a. 837-1142), Jak2 (a.a. 828-1132) and Jak3 (a.a. 781-1124) with an N-terminal His tag were expressed using baculovirus in insect cells and purified. The catalytic activity of JAK1, JAK2 or JAK3 was assayed by measuring the phosphorylation of a biotinylated peptide. The phosphorylated peptide was detected by homogenous time resolved fluorescence (HTRF). IC50s of compounds were measured for each kinase in the 40 microL reactions that contain the enzyme, ATP and 500 nM peptide in 50 mM Tris (pH 7.8) buffer with 100 mM NaCl, 5 mM DTT, and 0.1 mg/mL (0.01%) BSA. The ATP concentration in the reactions was 90 μM for Jak1, 30 μM for Jak2 and 3 μM for Jak3 for Km conditions. For the 1 mM IC50 measurements, ATP concentration in the reactions was 1 mM. Reactions were carried out at RT for 1 h and then stopped with 20 μL 45 mM EDTA, 300 nM SA-APC, 6 nM Eu-Py20 in assay buffer (Perkin Elmer, Boston, Mass.). Binding to the Europium labeled antibody took place for 40 min and HTRF signal was measured on a Fusion plate reader (Perkin Elmer, Boston, Mass.).
(§2) Compounds herein were tested for inhibitory activity of JAK1 and JAK2 targets according to the assay of Example A (experiments run at Km or 1 mM as indicated). The symbol “+” indicates an IC50<50 nM; the symbol “++” indicates an IC50≧50 and ≦100 nM; and the symbol “+++” indicates an IC50>100 and ≦500 nM.

By UniProt entry, the sequences of proteins in these tests, tags left out. Residues count along the entry.
UniProt O60674, 828-1132 limits assumed: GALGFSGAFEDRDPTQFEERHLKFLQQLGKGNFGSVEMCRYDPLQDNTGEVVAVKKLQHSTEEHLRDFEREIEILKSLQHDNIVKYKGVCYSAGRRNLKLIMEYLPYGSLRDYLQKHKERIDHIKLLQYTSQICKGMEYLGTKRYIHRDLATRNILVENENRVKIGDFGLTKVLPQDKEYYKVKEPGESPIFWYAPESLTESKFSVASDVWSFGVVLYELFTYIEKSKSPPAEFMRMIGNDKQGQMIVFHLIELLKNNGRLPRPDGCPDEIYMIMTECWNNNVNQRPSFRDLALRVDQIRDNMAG
UniProt P23458, 849-1154 limits assumed: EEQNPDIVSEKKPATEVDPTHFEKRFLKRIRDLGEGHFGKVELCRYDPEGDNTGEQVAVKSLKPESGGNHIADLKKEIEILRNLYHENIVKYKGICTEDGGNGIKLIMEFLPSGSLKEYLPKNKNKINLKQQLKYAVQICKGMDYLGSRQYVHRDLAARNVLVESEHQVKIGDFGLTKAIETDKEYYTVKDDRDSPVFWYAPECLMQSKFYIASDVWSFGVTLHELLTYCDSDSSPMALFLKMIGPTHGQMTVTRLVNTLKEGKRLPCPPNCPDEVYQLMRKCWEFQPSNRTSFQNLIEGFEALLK

[1] = biological target: human JAK1 (a.a. 837-1142) (Homo sapiens, UniProt P23458); assay: In vitro JAK kinase assay (HTRF, phosphorylation of a biotinylated peptide), JAK1; conditions: read-out: JAK1 IC50, Assay Conditions 1 mM ATP
Description: as §1, §2

For `N#CCC(C1CCN(c2ccnnc2C#N)C1)n1ccc(-c2ncnc3[nH]ccc23)c1` (centres unmarked), the “JAK2/JAK1 IC50 ratio” value (Jak2 (a.a. 828-1132); tested form: trifluoroacetate) was 8.7 and the pIC50 ([1]; tested form: trifluoroacetate) was over 7.30.

In the case of `N#CCC(C1CCN(c2ncccc2C#N)C1)n1ccc(-c2ncnc3[nH]ccc23)c1` (single isomer, unassigned), the “JAK2/JAK1 IC50 ratio” value (Jak2 (a.a. 828-1132); tested form: trifluoroacetate) was 4.9 and the pIC50 ([1]; tested form: trifluoroacetate) was over 7.30.

In the case of `N#CCC(C1CCN(c2nccnc2C#N)C1)n1ccc(-c2ncnc3[nH]ccc23)c1` (single isomer, unassigned), the “JAK2/JAK1 IC50 ratio” value (Jak2 (a.a. 828-1132); tested form: trifluoroacetate) was 9.3 and the pIC50 ([1]; tested form: trifluoroacetate) was over 7.30.

In the case of `N#Cc1ncsc1N1CCC(C(CF)n2ccc(-c3ncnc4[nH]ccc34)c2)C1` (single isomer, unassigned), the “JAK2/JAK1 IC50 ratio” value (Jak2 (a.a. 828-1132)) was 11.3 and the pIC50 [1] was over 7.30.
